Test results: PMC10065276, “Enhanced therapeutic window for antimicrobial Pept-ins by investigating their structure-activity relationship” (PLOS ONE, 2023)
Converted amounts (≈) assume the structure as drawn.

Columns and labels:
[1] = system: HEK 293T cells; assay: CellTiter Blue assay; type: cell-based, human; conditions: about 16 hours treatment, viability normalised to vehicle
Procedure: HEK 293T cells (ATCC CRL-3216) were grown in DMEM medium, supplemented with 10% FBS, 1 mM sodium pyruvate, non-essential amino acids. 100 μL of 10 000 cells were grown in flat-bottom 96-well plates (Fischer Scientific) overnight until cells are attached to the plate. Peptides were dissolved with Mini-plasco Nacl 0.9% (B. Braun) to 2 mg/mL and diluted to indicated concentrations using cell culture medium. Cells were treated by adding 100 μL peptides to each well for about 16 hours. Cells lysed with 1% Triton X-100 was included as a positive control. The toxicity of the peptide treatments was evaluated using the CellTiter-Blue Cell Viability Assay according to the instructions of the manufacturer (Promega, USA). The metabolic activity of viable cells is measured by recording fluorescence intensity at 590 nm after excitation at 560 nm. Cell viability is determined by normalising the fluorescence intensity of peptide- or triton-treated cells to the vehicle-treated sample.

[2] = system: A. baumannii clinical isolates; type: cell-based, Acinetobacter baumannii; conditions: S12 Table; each table row is one A. baumannii clinical isolate (12 isolates)
Excerpt: To address the emerging antibiotic resistance issue, it is not only required to develop active antibiotics against wildtype bacteria, but also against the clinically isolated multidrug-resistant strains. Therefore, we determined whether P2 variants with a 4-fold lower MICs (P2_A5F, V7Y (P2), P2_H12_GV, P2_H12_PEG) (S12 Table) will also show improved antimicrobial activity against these multidrug-resistant strains. Since a high net positive charge could carry inherent developability challenges, we further explored the therapeutic potential of P2 variants with reduced net charge (P2_4R_GV and P2_4R_L) (S12 Table) by determining their antimicrobial activity against these clinically isolated multidrug-resistant strains. […]
The peptide MIC was determined via the broth microdilution assay according to the EUCAST guideline, using 96-well polystyrene flat-bottom microtiter plates (BD Biosciences). […] The MIC was determined as the lowest peptide concentration without visible bacterial growth.

**Q.** Which “toxicity on HEK 293T cells” value [1] does the source give for CC(C)C[C@H](NC(=O)CNC(=O)[C@H](CCCNC(=N)N)NC(=O)[C@@H]1CSSC[C@H](NC(=O)[C@@H](NC(=O)[C@H](CC(C)C)NC(=O)[C@H](C)NC(=O)[C@H](CC(C)C)NC(=O)CNC(=O)[C@H](CC(C)C)NC(=O)CNC(=O)[C@@H](N)CCCNC(=N)N)C(C)C)C(=O)N[C@@H](CCCNC(=N)N)C(=O)N[C@@H](CCCNC(=N)N)C(=O)NCCOCCOCC(=O)N1)C(=O)NCC(=O)N[C@@H](CC(C)C)C(=O)N[C@@H](C)C(=O)N[C@@H](CC(C)C)C(=O)N[C@H](C(=O)N[C@@H](CCCNC(=N)N)C(=O)N[C@@H](CCCNC(=N)N)C(=O)O)C(C)C [Peptide P2_H12_PEG] here?
**A.** The value was “induced toxicity effects”.

**Q.** And the MIC [2]?
**A.** The MIC was 8 mg/L (≈ 3.13 µM).
